Reference: PMC9764201, “Half-calcified calmodulin promotes basal activity and inactivation of the L-type calcium channel CaV1.2” (The Journal of Biological Chemistry, 2022)
“Also recorded” adds a separate entry of the source.

Legend:
Ca2/CaM12’ [1] = molecular target: T1, Ca2/CaM12’ (Xenopus laevis, UniProt P0DP33, D21A/D23A/D25A/D57A/D59A/E32Q/E68Q/N61A); test: NMR of Ca2/CaM12’-IQ; type: binding; settings: 303 K
T1 construct: made in house; host or cells: E. coli BL21(DE3) Codon Plus, pET11d
Source text: The CaM12’ mutation ((D21A/D23A/D25A/E32Q/D57A/D59A/N61A/E68Q) was introduced into Xenopus CaM complementary DNA by PCR QuickChange procedure ([39]). The mutated complementary DNA was inserted into the NcoI/BamHI sites of a pET11d vector and verified by automated Sanger sequencing. The recombinant CaM12’ protein was expressed from a pET11d vector in a BL21(DE3) Codon Plus Escherichia coli strain (Stratagene) and purified as described previously ([40]). The CaV1.2 IQ peptide (residues 1644–1664) was purchased from ChinaPeptides. The peptide was dissolved in d6-dimethyl sulfoxide to give a peptide concentration of 7.8 mM. The peptide concentration was determined by measuring absorbance at 280 nm with ε280 = 2980 M^−1 cm^−1. […]
All NMR measurements were performed at 303 K using a Bruker Avance III 600 MHz spectrometer equipped with a four-channel interface and triple-resonance cryoprobe. […] Two-dimensional NMR experiments (heteronuclear single quantum coherence [HSQC] and HSQC-IPAP) were recorded on samples of ^15N-labeled Ca2/CaM12’ (0.5 mM) bound to unlabeled IQ (0.75 mM). […] Three-dimensional NMR experiments for assigning backbone and side-chain resonances, and NOESY distance restraints were analyzed as described previously ([42]). NMR data were processed using NMRPipe ([43]) and analyzed with SPARKY (Goddard T.D. and Kneller D.G., University of California at San Francisco). […]

Ca2/CaM12’ [2] = molecular target: T1, Ca2/CaM12’; test: ITC of Ca2/CaM12’ binding to IQ peptides; settings: for ΔH: SD from three independent trials
CaMC = settings: Figure 1; dissociation of CaMC-IQ; read-out: K3; cited from earlier work
Source text: (§1) Figure 1 Apparent Ca^2+-binding affinity of the CaM C-lobe bound to IQ (CaMC-IQ).

Ca2/CaMC = settings: Figure 1; cited from earlier work
Source text: as §1

CaMN = settings: physiological conditions; cited from earlier work
Source text: On the basis of previous binding data ([14], [18]), the C-lobe under basal conditions is predicted to bind two Ca^2+ to form a half-calcified state (called Ca2/CaM) in which the N-lobe is devoid of Ca^2+ ([19]). […] Using the binding constants from ([14], [18]) the relative concent ... || Figure 2 Apparent Ca^2+-binding affinity of the CaM N-lobe bound to IQ (CaMN-IQ). […] K1 and K2 are assigned here to the complex formed and K3 to the complex that dissociates; this choice of label is uncertain. / The numbers (18) and (14) printed after the equations look like citation numbers, not compound numbers, and were left out.

apoCaM = apoCaM (Xenopus laevis, UniProt P0DP33); settings: ITC, absence of salt; cited from earlier work
Source text: CaV1.2 is the main L-type channel in heart, blood vessels, and brain ([1], [2]). Ca^2+ influx through CaV1.2 triggers cardiac contraction, regulates arterial tone ([1]), mediates synaptic long-term potentiation ([3], [4]), controls neuronal excitability ([5]), and mediates Ca^2+-dependent gene expression ([6]). Defects in inactivation of CaV1.2 cause Timothy syndrome, a rare congenital abnormality leading to lethal arrhythmias, autistic-like behaviors, and immune deficiency ([7]).

Ca2/CaM12’ [3] = molecular target: T1, Ca2/CaM12’; test: Fluorescence polarization, Ca2/CaM12’ binding to fluorescein-labeled IQ peptides; settings: Fig. 4F compared to apoCaM of refs 14, 15
Source text: The NMR structure of Ca2/CaM12’-IQ (Fig. 4D) looks quite different from the recent NMR structure of apoCaM bound to IQ ([15]). In the apoCaM-IQ structure, K1662 forms intermolecular salt bridges with CaM residues, E85 and E88. […] This analysis predicts that the CaV1.2 mutation K1662E weakens binding to apoCaM more than it does to Ca2/CaM12’. […] The free concentrations of Ca2/CaM12’ ([Ca2/CaM12^′]free=[Ca2/CaM12^′]total−[IQ]×(fractionalsaturation)) are within the sample noise level during the first half of the titration when [Ca2/CaM12^′]free<100nM (see SD bars in Fig. 4F). […]
Fluorescein-labeled peptides (100 nM; ChinaPeptides) were titrated with increasing concentrations of purified Ca2/CaM12’ in FP buffer (20 mM Tris, pH 7.4, 100 mM KCl, 1 mM MgCl2, 1.0 mM CaCl2) or apoCaM in Ca^2+-free buffer (20 mM Tris, pH 7.4, 100 mM KCl, 1 mM MgCl2, 2.0 mM EGTA). FP was measured with a Synergy 2 plate reader (BioTek) as described ([52]). FP was calculated as P = (Iv - g∗Ih)/(Iv + g∗Ih); Iv and Ih are vertical and horizontal fluorescence intensity, respectively, and g is the correction factor for fluorescein. To obtain binding curves and KD values, data were fitted in GraphPad Prism 5 (GraphPad Software Inc) to the equation Y = B∗X/(Kd + X); B is maximal FP value that would be reached at saturation as determined by extrapolation of the fitted curve.

ΔH (Ca2/CaM12’ [2]; 27 °C): -10 kcal/mol
ΔH (Ca2/CaM12’ [2]; 37 °C): -15 kcal/mol
predicted KD increase when temperature is increased from 27 °C to 37 °C (Ca2/CaM12’ [2]; predicted from ΔH°): 2.3 fold
affinity for Ca2/CaM compared to apoCaM (Ca2/CaM12’ [3]): at least 100 fold
Compound: CC[C@H](C)[C@H](NC(=O)[C@H](CC(C)C)NC(=O)[C@H](Cc1ccccc1)NC(=O)[C@@H](NC(=O)[C@H](C)NC(=O)[C@H](Cc1ccc(O)cc1)NC(=O)[C@H](Cc1ccccc1)NC(=O)[C@H](CCCCN)NC(=O)CNC(=O)[C@@H](NC(=O)[C@@H](N)[C@@H](C)O)C(C)C)[C@@H](C)O)C(=O)N[C@@H](CCC(N)=O)C(=O)N[C@@H](CCC(=O)O)C(=O)N[C@@H](Cc1ccc(O)cc1)C(=O)N[C@@H](Cc1ccccc1)C(=O)N[C@@H](CCCNC(=N)N)C(=O)N[C@@H](CCCCN)C(=O)N[C@@H](Cc1ccccc1)C(=O)N[C@@H](CCCCN)C(=O)N[C@@H](CCCCN)C(=O)N[C@@H](CCCNC(=N)N)C(=O)O [IQ^WT]
NMR structural finding on the IQ peptide in the complex (Ca2/CaM12’ [1]; Tris-d11 pH 7.5, 1.0 mM CaCl2): make extensive contacts with CaM C-lobe residues (E85, A89, F93, M110, L113, M125)
NMR structural finding on the IQ peptide in the complex (Ca2/CaM12’ [1]; Tris-d11 pH 7.5, 1.0 mM CaCl2, listed as IQ peptide): does not make any contacts with the Ca^2+-free N-lobe; also recorded: helical conformation
Kd (CaMC): 10 µM
K2 (Ca2/CaMC): 10^7 M^-1
binding of IQ to apoCaM N-lobe (CaMN): does not bind to IQ
affinity (apoCaM): submicromolar affinity
